Results from ChEMBL document CHEMBL5131542, “Exploring Degradation of Mutant and Wild-Type Epidermal Growth Factor Receptors Induced by Proteolysis-Targeting Chimeras” (J Med Chem, 2022).

By UniProt entry, the sequences of proteins in these tests, tags left out.
von Hippel-Lindau disease tumor suppressor/Epidermal growth factor receptor (Homo sapiens), P00533+P40337, UniProt P40337, whole entry, looked up, stated change not applied: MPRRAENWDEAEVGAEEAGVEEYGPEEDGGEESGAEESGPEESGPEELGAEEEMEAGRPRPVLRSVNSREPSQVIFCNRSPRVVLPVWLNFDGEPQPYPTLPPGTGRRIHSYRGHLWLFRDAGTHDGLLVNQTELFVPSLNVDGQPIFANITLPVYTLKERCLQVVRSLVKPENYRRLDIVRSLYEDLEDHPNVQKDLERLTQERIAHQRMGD

System: von Hippel-Lindau disease tumor suppressor/Epidermal growth factor receptor (Homo sapiens), P00533+P40337 [UNDEFINED MUTATION]
Test: PROTAC activity at VHL/EGFR Del19 mutant in human HCC827 cells assessed as EGFR degradation treated after 8 hrs under serum starvation condition at 10 to 1000 nM measured after 16 hrs by Western blotting analysis
Assay type: cell-based
Settings: dose 10-1000 nM

Compound: COc1cc2ncnc(Nc3ccc(F)c(Cl)c3)c2cc1OCCCN1CCN(C(=O)C[C@H](NC(=O)[C@@H]2C[C@@H](O)CN2C(=O)[C@@H](c2cc(C)no2)C(C)C)c2ccc(-c3scnc3C)cc2)CC1
- Activity: Active

The source made the active and inactive calls. No cut-off for these calls is given here.
